AlphaSeq binding of Ab-14 light chain variants to a spike HR2 peptide

Reference: Engelhart et al. 2022, doi:10.1038/s41597-022-01779-4. File: FLAb, binding data.

Target peptide (SARS-CoV-2 spike, HR2 region): PDVDLGDISGINAS

Parent scFv Ab-14: VH joined to VL by a (GGGGS)3 linker. Changes lie in the light chain CDRs alone.
VH: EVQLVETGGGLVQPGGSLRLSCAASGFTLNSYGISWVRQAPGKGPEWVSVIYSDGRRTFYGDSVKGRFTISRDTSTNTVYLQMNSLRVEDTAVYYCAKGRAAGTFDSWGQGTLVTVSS
VL: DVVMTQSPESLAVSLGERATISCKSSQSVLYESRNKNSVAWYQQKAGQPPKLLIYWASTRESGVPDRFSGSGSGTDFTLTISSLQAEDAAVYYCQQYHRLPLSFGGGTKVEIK

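Variants in AAYL50 differ from the parent at up to three CDR positions; double and triple changes were sampled at random. Affinity was read by AlphaSeq, a pooled yeast mating assay with surface-displayed partners. Mating (16 h, 30 °C) was followed by selection of diploids and sequencing of their barcodes. Each replicate has its own calibration line, from reference interactions of the BCL2 family. Mating was done three times.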

Changes read parent residue, position, new residue, counted from the first residue of the VL shown. Scale: log10 of Kd in nM, estimated from mating counts; low values are strong binders. Where no diploid with the target was found in that replicate, the entry reads "nd": below detection, most likely a poor binder, though not proof of it. In this assay the parent's reference entry averaged 0.65; its copy inside this library read 1.68. Nonspecific signal, from three strains lacking the peptide, appeared in 18% of pairings of library AAYL50, centred on 4.19 (5% of these signals below 2.99); values are not corrected for it. The control count says in how many pairings with the empty strains this scFv gave a signal, with their mean in brackets.

changes,"replicates, log10 nM",signal with controls
K24Y V39Y A57L,nd nd nd,0 of 9
V29S S33Q Q95P,2.12 2.27 nd,0 of 9
K24W S38P S103L,2.43 2.68 2.43,0 of 9
E61P L100V L102K,nd nd nd,0 of 9
S38P Q95W H98M,4.97 3.37 nd,1 of 9 (3.91)
N37P V39C Y97V,nd 3.34 nd,5 of 9 (3.98)
S28T A40R L100S,nd nd nd,1 of 9 (3.49)
N35F V39Y H98F,nd nd nd,2 of 9 (4.52)
K24D R34K L100H,nd nd nd,1 of 9 (3.57)
S28H A57N,nd 4.74 6.30,1 of 9 (4.36)
Q27P S38F R60L,nd nd nd,0 of 9
S28R R34I S103N,2.94 2.43 3.09,1 of 9 (3.98)
L30G R60D H98E,nd nd nd,0 of 9
R60Q,4.48 2.90 3.10,3 of 9 (4.18)
S26Y R34L S62W,1.71 1.58 1.67,4 of 9 (4.41)
S26Y S28V E61K,nd nd nd,3 of 9 (4.14)
K24P L30R T59W,nd nd nd,0 of 9
S58N Y97Q L102H,nd nd nd,0 of 9
S28A S62D S103V,0.66 0.87 0.85,1 of 9 (4.32)
E61M S62P R99C,3.05 2.53 2.44,4 of 9 (4.03)
E32G R34P Y97K,1.14 1.35 1.46,1 of 9 (3.61)
S26I K36Y,2.41 2.15 nd,0 of 9
S25C N37S,2.08 1.71 2.10,1 of 9 (3.97)
K24W E61L L102R,3.83 2.89 2.52,0 of 9
L30S N35G L100F,0.83 1.05 0.84,0 of 9
W56V T59S Q95L,4.88 nd nd,3 of 9 (4.67)
Q27F R34Y R60F,nd 5.52 nd,3 of 9 (4.60)
S26Q E32W S103Q,1.94 2.38 3.08,2 of 9 (4.00)
K24E V29M A57M,3.85 3.22 2.75,3 of 9 (4.75)
V29N A57G Q95V,3.61 4.37 nd,7 of 9 (4.17)
K24L Q27Y V39H,nd nd nd,0 of 9
R34I N37L Q95F,nd nd nd,0 of 9
S33A A57Y,nd 4.28 5.76,4 of 9 (4.85)
K24D S38C A40N,nd nd nd,0 of 9
Y31L Q95G P101I,1.12 1.15 1.29,3 of 9 (4.32)
N37H S38L A40D,nd nd nd,3 of 9 (3.76)
N35Q T59A,2.35 2.53 2.17,1 of 9 (3.31)
S38N E61P Q96V,2.77 1.98 2.23,2 of 9 (4.66)
E32V,3.24 2.44 2.81,0 of 9
V29E A40C S62G,nd nd 3.58,2 of 9 (3.20)
Y97A R99F L102E,nd nd nd,0 of 9
R34Y A40Y P101K,nd nd 5.10,1 of 9 (4.35)
S28H E32F R60E,nd nd nd,2 of 9 (3.94)
S28Y N37D Y97D,nd nd nd,2 of 9 (3.49)
S33F V39W,nd 4.73 nd,1 of 9 (3.86)

The closing 7 entries, repeated:

| changes | replicates, log10 nM | signal with controls |
|---|---|---|
| E32V | 3.24 2.44 2.81 | 0 of 9 |
| V29E A40C S62G | nd nd 3.58 | 2 of 9 (3.20) |
| Y97A R99F L102E | nd nd nd | 0 of 9 |
| R34Y A40Y P101K | nd nd 5.10 | 1 of 9 (4.35) |
| S28H E32F R60E | nd nd nd | 2 of 9 (3.94) |
| S28Y N37D Y97D | nd nd nd | 2 of 9 (3.49) |
| S33F V39W | nd 4.73 nd | 1 of 9 (3.86) |